{"sequences": {"note": "Chains of the proteins cited; added tags and fusions are not shown. Residues count along the entry.", "UniProt O42275, 24-633": "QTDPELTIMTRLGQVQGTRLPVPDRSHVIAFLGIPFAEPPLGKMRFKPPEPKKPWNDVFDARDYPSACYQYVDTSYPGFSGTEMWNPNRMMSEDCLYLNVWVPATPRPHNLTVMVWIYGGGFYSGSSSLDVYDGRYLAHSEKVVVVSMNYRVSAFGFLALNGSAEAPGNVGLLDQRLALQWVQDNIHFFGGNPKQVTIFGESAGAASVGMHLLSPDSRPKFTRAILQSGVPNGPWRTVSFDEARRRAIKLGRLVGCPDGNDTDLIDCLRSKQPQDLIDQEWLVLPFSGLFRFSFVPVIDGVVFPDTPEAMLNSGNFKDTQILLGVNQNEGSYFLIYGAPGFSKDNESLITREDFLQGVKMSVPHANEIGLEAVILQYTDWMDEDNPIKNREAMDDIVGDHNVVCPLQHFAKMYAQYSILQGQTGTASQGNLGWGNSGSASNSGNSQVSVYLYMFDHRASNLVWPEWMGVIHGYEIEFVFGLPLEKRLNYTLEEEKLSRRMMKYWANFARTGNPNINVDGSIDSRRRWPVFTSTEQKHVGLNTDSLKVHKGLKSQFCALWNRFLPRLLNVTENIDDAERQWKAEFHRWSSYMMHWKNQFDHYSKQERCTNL"}, "source": "paper PMC3093628", "about": "“Screening the methanol extracts of some Iranian plants for acetylcholinesterase inhibitory activity” (Research in Pharmaceutical Sciences, 2009)", "target": "T1, Electric eel acetylcholinesterase (AChE) (Electrophorus electricus, UniProt O42275)", "T1 construct": "commercial enzyme from Sigma (USA); no further details printed", "test": "Ellman colorimetric assay with acetylthiocholine iodide and DTNB, […] nm", "assay_type": "biochemical", "conditions": "read-out: IC50 value (mg/ml) (converted)", "data": [{"smiles": "CNC(=O)Oc1ccc2c(c1)[C@]1(C)CCN(C)[C@@H]1N2C", "note": "[Eserine]", "values": [{"measurement": "IC50", "result": 2910, "unit": "µM"}]}]}
